# Literature values, collected in US6469063B1, “Inhibition of inflammation via inhibition of COX-2 gene transcription” (City of Hope, priority 1999, dated 2002).
# Amino acid sequences for entries named in this document (tags omitted). Residues count along the entry.
# UniProt P35354, 18-604: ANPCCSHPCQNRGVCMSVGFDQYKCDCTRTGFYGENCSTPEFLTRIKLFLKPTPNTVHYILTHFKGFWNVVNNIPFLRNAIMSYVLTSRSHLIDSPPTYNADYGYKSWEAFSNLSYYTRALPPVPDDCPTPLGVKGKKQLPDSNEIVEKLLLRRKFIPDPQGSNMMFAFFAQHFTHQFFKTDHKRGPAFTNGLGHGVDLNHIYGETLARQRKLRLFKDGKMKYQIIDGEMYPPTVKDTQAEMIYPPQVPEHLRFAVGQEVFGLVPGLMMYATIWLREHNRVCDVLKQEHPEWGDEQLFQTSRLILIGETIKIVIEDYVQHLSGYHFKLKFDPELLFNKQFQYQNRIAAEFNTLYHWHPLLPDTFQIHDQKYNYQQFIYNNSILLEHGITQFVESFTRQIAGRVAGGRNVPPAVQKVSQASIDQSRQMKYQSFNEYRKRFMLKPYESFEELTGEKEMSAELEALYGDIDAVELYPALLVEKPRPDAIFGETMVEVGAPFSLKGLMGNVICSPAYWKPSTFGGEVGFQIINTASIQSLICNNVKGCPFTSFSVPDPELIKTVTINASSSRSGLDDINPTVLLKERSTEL
# UniProt P23219, 24-599: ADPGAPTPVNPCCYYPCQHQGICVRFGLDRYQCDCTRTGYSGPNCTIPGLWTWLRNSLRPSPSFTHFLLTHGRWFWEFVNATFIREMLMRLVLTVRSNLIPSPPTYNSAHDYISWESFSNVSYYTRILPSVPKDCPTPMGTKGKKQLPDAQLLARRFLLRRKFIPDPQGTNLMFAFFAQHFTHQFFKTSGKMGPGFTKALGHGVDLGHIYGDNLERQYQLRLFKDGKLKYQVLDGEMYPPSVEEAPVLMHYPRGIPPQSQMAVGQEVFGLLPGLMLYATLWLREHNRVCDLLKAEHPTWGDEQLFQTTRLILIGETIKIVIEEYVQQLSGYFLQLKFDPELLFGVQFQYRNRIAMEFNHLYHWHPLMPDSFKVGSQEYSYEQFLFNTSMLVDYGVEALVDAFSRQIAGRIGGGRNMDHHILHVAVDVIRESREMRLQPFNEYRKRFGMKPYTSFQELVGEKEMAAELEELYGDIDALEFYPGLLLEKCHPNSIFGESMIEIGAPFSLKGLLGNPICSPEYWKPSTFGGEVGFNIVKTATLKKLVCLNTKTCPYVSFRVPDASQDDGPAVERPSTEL
# What was measured:
# COX-2 = COX-2 (Homo sapiens, UniProt P35354); conditions: low concentration; cited from earlier work
# COX-1 = COX-1 (Homo sapiens, UniProt P23219); conditions: low concentration; cited from earlier work
structure (smiles),measurement,setting,value
"O=C(/C=C/c1ccc(O)c(O)c1)OCCc1ccccc1 [CAPE, caffeic acid phenethyl ester]",concentration inhibiting COX-2 enzyme activity,COX-2,14 to 28 µM
same,concentration inhibiting COX-1 enzyme activity,COX-1,14 to 28 µM
